Data: patent publication US10117919B2, “Methods and materials for generating CD8+ T cells having the ability to recognize cancer cells expressing a HER2/neu polypeptide” (Mayo Foundation for Medical Education and Research, priority 2012, dated 2018)

Experiments:
[1] = tested on: 20S proteasome and immunoproteasome; test: Processing of longer HER-2/neu polypeptides (19-mer, 23-mer) treated with the proteasomes; assay type: biochemical; conditions: 19-mer FAGCKKIFGSLAFLPESFD as substrate
20S proteasome = test: In vitro cleavage of HER-2/neu 19-mer by purified 20S proteasome; assay type: biochemical; parameters: key: The symbol (+) indicates the polypeptide was produced by the respective enzyme in an in vitro assay; The symbol (-) indicates lack of peptide detection in an in vitro assay in samples containing the respective enzyme; conditions: from HER-2/neu 19-mer (364-382)
immunoproteasome = test: In vitro cleavage of HER-2/neu 19-mer by purified immunoproteasome; assay type: biochemical; parameters: key: The symbol (+) indicates the polypeptide was produced by the respective enzyme in an in vitro assay; The symbol (-) indicates lack of peptide detection in an in vitro assay in samples containing the respective enzyme; conditions: from HER-2/neu 19-mer (364-382)
[2] = tested on: target cells pulsed with polypeptide; test: IFN-γ ELIspot of polypeptide-generated CD8+ T cell lines against polypeptide-pulsed target cells; assay type: cell-based, human

`CC[C@H](C)[C@H](NC(=O)[C@@H](N)CCCCN)C(=O)N[C@@H](Cc1ccccc1)C(=O)NCC(=O)N[C@@H](CO)C(=O)N[C@@H](CC(C)C)C(=O)N[C@@H](C)C(=O)N[C@@H](Cc1ccccc1)C(=O)N[C@@H](CC(C)C)C(=O)O` [reference compound] was tested, and the “Processing by purified 20S proteasome and immunoproteasome” value [1] was “did not reveal processing of this polypeptide”, the “Peptide generated by proteasome” value (20S proteasome) was “-” and the “Peptide generated by immunoproteasome” value (immunoproteasome) was “-”. The “Recognition of polypeptide-pulsed target cells by T cells generated with the polypeptide” value [2] was “recognized target cells pulsed with p369-377 polypeptide and target cells pulsed with p373-382”.
